The assay concerns the target recombinant human DPPI (Cathepsin C) (Homo sapiens, UniProt P53634). As to the kind of experiment: Inhibition of Human DPPI (Cathepsin C). The note with it: read-out: Inhibition of DPPI IC50, substrate Gly-Arg-AMC 50 μM, MES buffer pH 6.0, 30 min at room temperature, fluorescence readout. From the text: Inhibition of Human DPPI (Cathepsin C)
Materials: Microtiterplates (Optiplate-384 F) were purchased from PerkinElmer (Prod.No. 10 6007270). The substrate Gly-Arg-AMC was from Biotrend (Prod.-No. 808756 Custom peptide).
Bovine serum albumin (BSA; Prod.No. A3059) and Dithiothreitol (DTT; Prod.No D0632) were from Sigma. TagZyme buffer was from Riedel-de-Haen (Prod.-No. 04269), NaCl was from Merck (Prod.-No. 1.06404.1000) and morpholinoethane sulfonic acid (MES), was from Serva (Prod.-No.
29834). The DPP1 inhibitor Gly-Phe-DMK was purchased from MP Biomedicals 15 (Prod.-No. 03DK00625). The recombinant human DPPI was purchased from Prozymex. […]
Five uL test compound (final concentration 0.1 nM to 100 μM) in aqua bidest 5 (containing 4% DMSO, final DMSO concentration 1%) were mixed with 10 μL of DPPI in MES buffer (final concentration 0.0125 ng/μL) and incubated for 10 min. […] The fluorescence in the wells was determined using a Molecular Devices SpectraMax M5 Fluorescence Reader (Ex 360 nm, Em 460 nm) or an Envision Fluorescence Reader (Ex 355 nm, Em 460 nm).
Each assay microtiter plate contained wells with vehicle controls (1% DMSO in bidest+0.075% 15 BSA) as reference for non-inhibited enzyme activity (100% Ctl; high values) and wells with inhibitor (Gly-Phe-DMK, in bidest+1% DMSO+0.075% BSA, final concentration 1 μM) as controls for background fluorescence (0% Ctl; low values). […]

Chains of the proteins cited; added tags and fusions are not shown. Residues count along the entry.
UniProt P53634, 25-143 limits assumed: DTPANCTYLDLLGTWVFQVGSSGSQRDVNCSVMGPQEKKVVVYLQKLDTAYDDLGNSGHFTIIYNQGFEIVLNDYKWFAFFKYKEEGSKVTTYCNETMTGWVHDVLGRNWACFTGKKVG
UniProt P53634, 231-394 limits assumed: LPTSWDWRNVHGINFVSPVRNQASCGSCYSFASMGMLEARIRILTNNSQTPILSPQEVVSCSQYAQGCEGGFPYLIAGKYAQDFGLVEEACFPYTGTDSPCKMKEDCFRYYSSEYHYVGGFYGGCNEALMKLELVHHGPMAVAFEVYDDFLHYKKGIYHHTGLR
UniProt P53634, 395-463 limits assumed: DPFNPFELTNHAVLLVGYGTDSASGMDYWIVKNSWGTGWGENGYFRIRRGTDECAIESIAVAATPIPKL

As a reminder, the IC50 is the concentration needed to halve the response being measured. For the molecule `N#C[C@H](Cc1ccc(C2CC3CN(C4COC4)CC3C2)cc1F)NC(=O)C12CCC(CC1)CN2` (stereo partly shown), the IC50 stood at 0.0754 µM.

Source of the values: patent US9440960B2, “Substituted oxetanes and their use as inhibitors of cathepsin C” (Boehringer Ingelheim International GmbH, priority 2014, dated 2016).
